# Yeast mating assay 1: variants of the scFv Ab-14

Source: Engelhart et al. 2022 (doi:10.1038/s41597-022-01779-4), MIT Lincoln Laboratory and A-Alpha Bio; data file from the FLAb repository.

Target peptide (SARS-CoV-2 spike, HR2 region): PDVDLGDISGINAS

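The parent was found by panning a naive human phage display library on the peptide. Variants in AAYL50 differ from the parent at up to three CDR positions; double and triple changes were sampled at random. AlphaSeq pools MATa yeast showing the antibodies with MATalpha yeast showing the peptide. Binding brings cells together so that they mate, and sequencing counts the barcode pairs among the diploids. The ratio of observed to expected reads was calibrated, replicate by replicate, on BCL2-family standards whose Kd was known from biolayer interferometry. Mating was done three times.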

Each scFv is VH, the linker GGGGSGGGGSGGGGS, VL, as in the parent Ab-14, and differs from it in the CDRs of the light chain only.
VH: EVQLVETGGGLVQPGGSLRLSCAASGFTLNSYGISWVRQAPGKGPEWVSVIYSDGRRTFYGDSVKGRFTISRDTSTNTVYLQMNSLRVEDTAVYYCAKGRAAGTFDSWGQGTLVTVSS
VL: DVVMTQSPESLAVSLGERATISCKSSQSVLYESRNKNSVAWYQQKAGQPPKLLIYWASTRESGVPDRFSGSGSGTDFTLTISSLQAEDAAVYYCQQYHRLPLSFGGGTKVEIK

Variants are written as CDR1, CDR2 and CDR3 of the light chain (limits as in the source). Parent: KSSQSVLYESRNKNSVA, WASTRES, QQYHRLPLS.
Every variant below is changed at P101 of the VL (sequential numbering).
Values are apparent Kd, the geometric mean of the replicates that gave a signal; lower means stronger binding.
"nd" means that the variant was in the library but no mating with the target was seen in any replicate; the authors take this as a sign of poor binding, and no number exists.
The list is sorted by this average, lowest first, undetected variants last.

KSSQSVLYEEENKNSVA / WASTRES / QQYHRLILS: 2.0 nM (3 of 3 replicates; controls 0 of 9).
KSSPSVLGESRNKNSVA / WASTRES / QQYHRLHLS: 4.2 nM (3 of 3 replicates; controls 3 of 9).
KSSQSVLYESRNKNSVA / WASTRES / QQYHRLCLS: 6.8 nM (3 of 3 replicates; controls 4 of 9).
KSSQSVLYESRNKNSVA / WASTRFS / QQYHRLVLM: 18 nM (3 of 3 replicates; controls 0 of 9).
KDSQSVLYESRNKNSVA / WASTRES / QQYWRLELS: 21 nM (3 of 3 replicates; controls 1 of 9).
KSSQSVLYESRNKNSVA / WANTRES / QQYHRPVLS: 38 nM (3 of 3 replicates; controls 1 of 9).
KSTQSVLYESMNKNSVA / WASTRES / QQYHRLGLS: 100 nM (3 of 3 replicates; controls 1 of 9).
KSSQSVLYEQRNKNSVA / WASTRES / QQYHRLMLS: 130 nM (3 of 3 replicates; controls 0 of 9).
KSSQSVLYESRNKNSVA / WASTRES / AQYHRLKNS: 600 nM (2 of 3 replicates; controls 0 of 9).
KSSQSVLYESRNKNSWA / WASTRES / QQYFRLILS: 1.8 µM (2 of 3 replicates; controls 0 of 9).
KSSQSVLYESRNKNSFA / WASTRES / QQAHRLMLS: 1.9 µM (2 of 3 replicates; controls 2 of 9).
KSAQSVLYESRNKNSVA / NASTRES / QQYHRLILS: 2.8 µM (2 of 3 replicates; controls 3 of 9).
KSSQSVLYESRNKNSWA / WASTRES / QQYHRLVLS: 3.1 µM (2 of 3 replicates; controls 1 of 9).
ISSQSVLYESRNKNSVA / WASTRES / RQYHRLQLS: 3.4 µM (2 of 3 replicates; controls 3 of 9).
KSTQSVLYESRNKNSVA / WASTRES / QQYHRLAQS: 3.7 µM (1 of 3 replicates; controls 3 of 9).
KSSQSVLFESRNKLSVA / WASTRES / QQYHRLDLS: 11 µM (1 of 3 replicates; controls 2 of 9).
KSSQSVLYESRNKNSVA / WPSTRES / QQYHRLKGS: 23 µM (1 of 3 replicates; controls 0 of 9).
KSSQSVLYESRNKRSVA / WASTRES / QQYHLLQLS: 24 µM (2 of 3 replicates; controls 1 of 9).
KSSQSVLYESRNKNSVA / WHSTRES / QVYHRLWLS: 64 µM (1 of 3 replicates; controls 2 of 9).
KSSQSQLWESRNKNSVA / WASTRES / QQYHRLMLS: 110 µM (3 of 3 replicates; controls 7 of 9).
DNSQSVLYESRNKNSVA / WASTRES / QQYHRLELS: 200 µM (2 of 3 replicates; controls 1 of 9).
KSSQSVLYESRNKNSVA / WASTRES / FQYHRLSLS: nd (0 of 3 replicates; controls 3 of 9).
KSSQSCLYENRNKNSVA / WASTRES / QQYHRLHLS: nd (0 of 3 replicates; controls 2 of 9).
KSPQSVLYESRNKNSVA / WASTRES / QQYHRLSLS: nd (0 of 3 replicates; controls 1 of 9).
KSSQSVLYEYRNKNSVA / WASTRES / QQYHRLHLS: nd (0 of 3 replicates; controls 1 of 9).
KSVQSVLYESRNKNSVA / WASTRES / QQYHRDRLS: nd (0 of 3 replicates; controls 0 of 9).
KSSQSVLYEMLNKNSVA / WASTRES / QQYHRLHLS: nd (0 of 3 replicates; controls 0 of 9).
KSSYSVLYEFRNKNSVA / WASTRES / QQYHRLNLS: nd (0 of 3 replicates; controls 2 of 9).
KSSQSVLYESRNKESVA / WASTRES / MQYHRLVLS: nd (0 of 3 replicates; controls 0 of 9).
KSSQSVLYESRNKNSVV / WASTRES / QQYHRLLLS: nd (0 of 3 replicates; controls 2 of 9).
KSSQDFLYESRNKNSVA / WASTRES / QQYHRLMLS: nd (0 of 3 replicates; controls 1 of 9).

For reference, 4 entries of the list once more:

CDR-L1	CDR-L2	CDR-L3	Kd	seen in	control signals
KSSQSVLYESRNKNSWA	WASTRES	QQYFRLILS	1.8 µM	2 of 3	0 of 9
KSSQSVLYESRNKNSVA	WASTRES	AQYHRLKNS	600 nM	2 of 3	0 of 9
KSSQSVLYESRNKNSVA	WANTRES	QQYHRPVLS	38 nM	3 of 3	1 of 9
KSSQSVLYEQRNKNSVA	WASTRES	QQYHRLMLS	130 nM	3 of 3	0 of 9

Nonspecific signal, from three strains lacking the peptide, appeared in 18% of pairings of library AAYL50, centred on 15 µM (5% of these signals below 970 nM); values are not corrected for it. For each scFv, signals with the empty controls are counted beside the result.